Legend:
[1] = Ratio of inhibitory concentrations at ET-B receptor relative to that of ET-A receptor
Endothelin-1 receptor = Endothelin-1 receptor (Rattus norvegicus, UniProt P26684); assay: Binding affinity for endothelin A receptor by inhibition of [125I]ET1 binding in rat aorta smooth muscle cells; type: tissue-based
[2] = target: T1, Endothelin receptor type B (Sus scrofa, UniProt P35463); assay: Binding affinity to endothelin B receptor measured by inhibition of [125I]ET-3 binding recombinant pig ET-B receptor expressed in COS-7 cells; type: cell-based
T1 sequence (P35463 whole entry): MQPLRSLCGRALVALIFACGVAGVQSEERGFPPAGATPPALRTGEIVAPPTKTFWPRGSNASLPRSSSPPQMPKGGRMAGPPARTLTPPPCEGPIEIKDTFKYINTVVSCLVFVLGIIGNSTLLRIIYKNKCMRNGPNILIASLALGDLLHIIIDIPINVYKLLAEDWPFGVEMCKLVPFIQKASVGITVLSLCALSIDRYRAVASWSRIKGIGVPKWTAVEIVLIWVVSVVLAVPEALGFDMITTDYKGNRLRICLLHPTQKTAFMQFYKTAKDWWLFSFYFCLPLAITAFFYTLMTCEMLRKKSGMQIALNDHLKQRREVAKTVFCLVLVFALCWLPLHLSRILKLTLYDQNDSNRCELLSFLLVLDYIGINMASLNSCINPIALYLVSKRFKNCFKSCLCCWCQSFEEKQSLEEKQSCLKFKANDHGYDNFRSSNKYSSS
Procedure, shortened: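 COS cells transfected with porcine ETB cDNA, in Hank's solution with 20 mM HEPES and protease inhibitors. Stopped by filtration on GF/C filters presoaked in 1% polyethylenimine, washed with 50 mM Tris-HCl pH 7.4, then counted. Nonspecific binding taken with 0.1 μM ET-3.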

Amino acid sequences for entries named in this document (tags omitted).
UniProt P26684, whole entry: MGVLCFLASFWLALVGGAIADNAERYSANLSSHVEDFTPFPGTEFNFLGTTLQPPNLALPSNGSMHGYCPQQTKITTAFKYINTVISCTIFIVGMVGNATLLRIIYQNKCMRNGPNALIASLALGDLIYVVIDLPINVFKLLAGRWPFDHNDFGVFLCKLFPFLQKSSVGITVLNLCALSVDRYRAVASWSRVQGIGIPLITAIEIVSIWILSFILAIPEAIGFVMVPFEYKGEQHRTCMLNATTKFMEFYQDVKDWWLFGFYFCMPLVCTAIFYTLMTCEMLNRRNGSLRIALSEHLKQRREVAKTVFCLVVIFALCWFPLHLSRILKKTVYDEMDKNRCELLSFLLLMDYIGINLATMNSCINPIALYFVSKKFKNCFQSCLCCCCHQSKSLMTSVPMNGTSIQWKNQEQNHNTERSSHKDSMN

Row | Ratio [1] | IC50 (Endothelin-1 receptor) [nM] | IC50 [2] [nM] | SMILES
1 | 350 | – | – | COc1ccc(C2=C(C(=O)O)C(c3ccc4c(c3)OCO4)Oc3ccc(OC(C)C)cc32)cc1 (stereo unspecified)
2 | 100 | 15 | 1500 | COc1ccc(C2=C(C(=O)O)[C@H](c3ccc4c(c3)OCO4)Oc3ccc(OC(C)C)cc32)cc1
3 | 630 | – | – | COc1ccc(C2=C(C(=O)O)[C@@H](c3ccc4c(c3)OCO4)Oc3ccc(OC(C)C)cc32)cc1
4 | – | 3400 | – | CCCCOC1=C(C(=O)O)C(c2ccc3c(c2)OCO3)Oc2cccc(OCCC)c21 (stereo unspecified)
